# Apparent affinities of Ab-95 variants for a coronavirus HR2 peptide

Antigen: PDVDLGDISGINAS, a 14-residue peptide of the SARS-CoV-2 spike HR2 region.

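Phage display of a naive human antibody library on the peptide gave the parent. In library AAYL52, one, two or three CDR residues were substituted; doubles and triples were drawn at random. The scFvs were displayed on barcoded MATa yeast, the peptide on MATalpha yeast. Binding brings cells together so that they mate, and sequencing counts the barcode pairs among the diploids. Each replicate has its own calibration line, from reference interactions of the BCL2 family. There are three technical replicates.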

Each scFv is VH, a (GGGGS)3 linker, VL, as in the parent Ab-95, and differs from it in the CDRs of the light chain only.
VH: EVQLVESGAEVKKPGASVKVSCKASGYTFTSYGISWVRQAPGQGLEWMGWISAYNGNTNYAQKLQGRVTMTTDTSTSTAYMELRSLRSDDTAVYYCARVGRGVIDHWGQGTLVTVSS
VL: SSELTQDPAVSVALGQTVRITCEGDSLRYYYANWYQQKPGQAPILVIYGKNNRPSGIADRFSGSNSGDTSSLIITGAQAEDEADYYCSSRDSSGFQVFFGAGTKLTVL

Each variant is given by its three light chain CDRs, as the data file delimits them; those of the parent are EGDSLRYYYAN, GKNNRPS, SSRDSSGFQVF.
Affinities are written as log10 Kd with Kd in nM; a lower number is a better binder.
An entry "ND" has no value in the source: the pair was not observed among the diploids in that replicate. This suggests poor binding but is not conclusive.
In this assay the parent's reference entry averaged 2.31; its copy inside this library read 2.25.

CDR-L1,CDR-L2,CDR-L3,log10 Kd (nM) by replicate,signal with controls
QGDSLRYYYAN,GKVNRPS,SSRDSSGFQGF,4.55 / ND / 3.81,4/9 (3.50)
EGWSLRYYFAN,GKNNRPI,SSRDSSGFQVF,3.92 / 4.77 / 3.27,0/9
EGDWLRYHYAN,GKNNRLS,SSRDSSGFQVF,2.76 / 2.78 / 1.91,2/9 (3.45)
EGMSLRYYYPN,GKNNRPS,SSRDDSGFQVF,1.99 / 1.87 / 1.59,5/9 (4.05)
EGDSLSYYYAN,GKNNRPS,SSRDMSGFQVI,2.68 / 2.89 / 2.30,2/9 (4.30)
EGDSLRYYEAN,GKNNRVS,SSRDSSGMQVF,1.66 / 1.52 / 1.62,0/9
EGDSLRYYYAN,GKNNIPS,SSRDSDGFQVS,ND / ND / ND,0/9
EHDSLMYYFAN,GKNNRPS,SSRDSSGFQVF,ND / ND / ND,2/9 (3.27)
ELDSGRYYRAN,GKNNRPS,SSRDSSGFQVF,3.97 / 4.26 / ND,3/9 (4.36)
EHDSLRYYYAI,GKNNRPS,SSRDSSGFQVF,ND / 4.83 / ND,1/9 (3.71)
EGDSLRYYYAN,GPNNRPS,SSRDDSGFQVM,3.78 / 3.64 / 4.36,2/9 (4.94)
EGDWLRYSYAN,GKNNRPS,SSRDSSYFQVF,1.59 / 1.34 / 1.66,3/9 (4.00)
FNDSNRYYYAN,GKNNRPS,SSRDSSGFQVF,6.03 / 3.75 / ND,5/9 (3.87)
EGDSLRYYYAN,GKNNRPS,SSRDSSGHCVH,2.72 / 2.55 / 3.86,3/9 (4.00)
EGDSLPYYYAN,GKNNRPS,SSRDSSGAMVF,2.89 / 2.89 / 2.92,2/9 (4.10)
YGDSLRYYYAN,GKNNMPS,SSRDSSGWQVF,ND / 3.52 / ND,1/9 (3.43)
EGDSLRYYYAN,GKNNWPS,SSRDSSGFQVF,4.55 / 4.43 / ND,6/9 (3.76)
EGDSLRYYYAN,WKNNRAS,ISRDSSGFQVF,3.32 / 3.18 / 2.71,3/9 (3.65)
EGDSLSYYYAN,GKNNRPS,SSRDSSGFQVF,2.22 / 2.19 / 1.97,4/9 (4.22)
EGDSLRYYSAN,GKIGRPS,SSRDSSGFQVF,2.37 / 2.03 / 2.02,1/9 (3.63)
EGDSLRYYYAN,GKNNRHS,SSRDSSMFQVF,3.83 / 3.55 / 3.46,7/9 (3.68)
EGDSLRYYPAN,GKHNRPS,SSRDSSGFQVF,1.73 / 1.70 / 1.33,1/9 (3.63)
EGDSLRYYYAN,GKNNRPS,ASDDSSQFQVF,ND / ND / ND,1/9 (4.33)
EGDSLRYYYAN,GKNNRPS,SSKDSWGFQHF,2.74 / 1.76 / 1.86,3/9 (3.60)
EQDSLRYYYAN,GKNNRPS,SSRGSSGFVVF,3.88 / 3.65 / ND,1/9 (4.67)
EGDSLRYYYAN,GKNNRPS,SSRDFDGDQVF,2.97 / 3.35 / 3.48,1/9 (3.71)
EGDSLRYYYAN,GKNNRPS,SSKDSSAFQVL,2.54 / 2.65 / 1.44,3/9 (3.25)
EGDSERYYYAN,GKNNRNS,SSRDSSGFQVF,4.11 / ND / ND,2/9 (3.62)
EGDSLRYYYAN,GKNNRPS,SSCDSSGFQQF,4.06 / 3.43 / 3.84,3/9 (4.06)
EGDSLDRYYAN,GKNNRPS,SSRDLSGFQVF,2.81 / 2.80 / 2.52,2/9 (4.14)
EGDSWRVYYAN,GKNNRPS,SSRDSSGFQQF,ND / 5.63 / ND,2/9 (3.28)
EGDSLRYYYAN,CKNNFPS,RSRDSSGFQVF,ND / ND / ND,1/9 (5.61)

5 of these entries, quoted again:

| CDR-L1 | CDR-L2 | CDR-L3 | log10 Kd (nM) by replicate | signal with controls |
|---|---|---|---|---|
| EGDSERYYYAN | GKNNRNS | SSRDSSGFQVF | 4.11 / ND / ND | 2/9 (3.62) |
| EGDSLRYYYAN | WKNNRAS | ISRDSSGFQVF | 3.32 / 3.18 / 2.71 | 3/9 (3.65) |
| EGWSLRYYFAN | GKNNRPI | SSRDSSGFQVF | 3.92 / 4.77 / 3.27 | 0/9 |
| EGDSLRYYYAN | GKNNRPS | SSCDSSGFQQF | 4.06 / 3.43 / 3.84 | 3/9 (4.06) |
| EGDSLRYYYAN | GKNNIPS | SSRDSDGFQVS | ND / ND / ND | 0/9 |

Empty control strains, which show no peptide, gave a signal in 28% of pairings with library AAYL52; the median was 3.91 and 95% of these signals were weaker than 2.90. No background was subtracted. Also given: how often the same scFv was detected with the empty control strains, with their mean in brackets.

The measurements come from Engelhart et al. 2022 (doi:10.1038/s41597-022-01779-4) through the FLAb antibody collection.